# Bioassay records from PubChem.
# miR-21 FLuc: raises the signal of a miR-21 reporter | HeLa miR-21 FLuc reporter, luciferase, 48 h | Potency, µM (doses to about 38.3 µM), without a hit: at the top dose reporter change, positive = more light | 340,000 tested, under 10 active | AID 2288; active = well fitted rising curve with a large enough effect; inconclusive = small, poorly fitted or top-dose-only effect; inactive = no such curve, though single readings can be large or run the other way;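 note: % of control where 0% means no effect; miR-21 action dims this reporter so a rising signal means less miR-21 action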
#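 Luminescence from a firefly luciferase reporter carrying a miR-21 binding site downstream, stably expressed under a CMV promoter in HeLa cells that make miR-21 endogenously, reports miRNA modulation after 48 h compound exposure up to approximately 40uM final.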
# TRPML1 inh: human mucolipin-1 channel inhibition; Q9GZU1; TRPML1-inducible cells, Ca2+ dye fluorescence, FDSS; stronger effect = lower value; inhibition of EC80 agonist-evoked calcium signal; activity change, negative = inhibition, % (test concentration not listed); hit rate 0.02% among 390,000; in the data active = activity change below about -50%; inconclusive = between about -30% and that limit;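 note: stimulus is agonist 54-4 at its EC80 concentration; % is set by controls: 0 for no effect and ±100 for the full control effect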
#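 Tet-induced TRPML1-DL cells loaded with Ca8 no-wash calcium dye were read kinetically on FDSS. Compound addition was followed by EC80 agonist 54-4 (4 uM final); inhibition was read over 110 s.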
# TRPML1 ag: human mucolipin-1 channel agonism; Q9GZU1; activation, % (test concentration not listed); hit rate 0.12% among 410,000; AID 624414; TRPML1-expressing cells, Ca2+ dye fluorescence, FDSS; in the data active = activation above about 50%; inconclusive = mostly about 30% to 49%; note: 0% is about no effect
#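 Tetracycline-induced TRPML1-DL cells are seeded and incubated overnight before loading with a no-wash Ca2+ dye and quencher. Agonist activity is taken from the 110 s fluorescence read following compound pin-transfer on an FDSS, before EC80 54-4 challenge.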
# uPA surface inh: blocks generation of uPA at the cell surface | hit rate 0.31% among 330,000 | cell surface uPA generation assay, qHTS | Potency, µM (top dose mostly 38.3 µM), for inactives: at the top dose activity change, negative = inhibition, most hits filed as inhibitors; active = well fitted inhibition curve with a large enough effect; inconclusive = small, poorly fitted or top-dose-only effect; inactive = no such curve, though single readings can be large or run the other way; tested in mouse RAW 264.7 cells; note: potency is the fitted concentration of half-maximal effect; % is set by controls: 0 for no effect and ±100 for the full control effect; nearly all actives have a fitted effect of over 55% in size
# * = called active by the depositor; ? = inconclusive; . = no result. This is a sample that favours compounds with a hit; in the whole collection about 0.34% have one here.
[1] OC[C@H]1O[C@@H](n2cnc3cc(Cl)c(Cl)cc32)[C@H](O)[C@@H]1O
[2] COc1ccccc1N=c1scc(-c2ccc(S(=O)(=O)N3CCCC3)cc2)n1C
[3] CN1/C(=C\C=C2C(=O)NC(=S)NC2=O)C(C)(C)c2ccccc21
[4] N#CC1c2ccccc2-n2nncc2CN1Cc1cc(Cl)cc(Cl)c1 (stereo not given)
[5] CN1Cc2cnnn2-c2ccccc2C1C#N (stereo not given)
[6] COc1ccc(CN2Cc3cnnn3-c3ccccc3C2C#N)cc1 (stereo not given)
[7] O=[N+]([O-])c1ccc(NCc2ccc(Cl)cc2)c2ccncc12
[8] O=[N+]([O-])c1ccc(NCc2ccccc2)c2nonc12

assay / compound	1	2	3	4	5	6	7	8
TRPML1 inh	-2	9	-18	-5	-19	33	3	-17
uPA surface inh	8.9µM*	.	-8%	4.5µM*	?	5.6µM*	3%	-2%
TRPML1 ag	-1	0	117*	2	1	0	0	77*
miR-21 FLuc	.	?	0%	.	.	.	1%	0%

[9] COc1ccc(O)c(/C=N/NC(=S)Nc2cccnc2)c1
[10] FC(F)(F)c1cnc(NNC(=S)Nc2cccnc2)c(Cl)c1
[11] COc1cc2c(c(OC)c1OC)-c1ccc(O)c(=O)cc1[C@@H](NC(C)=O)CC2
[12] COc1cc2c(c(OC)c1OC)-c1ccc(O)cc1C(NC(C)=O)CC2 (stereo not given)
[13] COc1ccccc1C(=O)Nc1ccc2nc(SCC(=O)N(C)c3ccccc3)sc2c1
[14] CC(C)(C)c1ccc(C(=O)Nc2ccc3nc(SCC(=O)N4CCCC4)sc3c2)cc1
[15] Cn1ncnc2c(=O)n(C)c(=O)nc1-2
[16] C[C@]12CC[C@H]3[C@@H](CCC4=CC(=O)CC[C@@]43C)[C@@H]1CC[C@@H]2C(=O)CO

assay / compound	9	10	11	12	13	14	15	16
TRPML1 inh	-7	4	-10	0	17	-4	24	24
uPA surface inh	11µM*	?	8.9µM*	-17%	.	.	1.1µM*	4µM*
TRPML1 ag	1	0	-1	0	0	2	3	-1
miR-21 FLuc	4%	23%	.	.	?	?	?	-18%

[17] CC12CCC(=O)C=C1CCC1C2CCC2(C)C(O)CCC12 (stereo not given)
[18] N[C@@H](Cc1ccc(N(CCCl)CCCl)cc1)C(=O)O
[19] Cc1cc2c(C(F)(F)F)cc(=O)oc2c2c1NCCC2
[20] O=c1cc(C(F)(F)F)c2cc3c4c(c2o1)CCCN4CCC3
[21] Cc1ccc(C(=O)CN2CCOCC2)cc1
[22] O=[N+]([O-])c1ccc(N2CCCCC2)c2ncccc12
[23] O=[N+]([O-])c1ccc(N2CCCCCC2)c2nonc12
[24] COC1=C(C)C(=O)c2c(c(COC(N)=O)c3n2C[C@@H]2[C@@H]3N2C)C1=O (stereo not given in full)

assay / compound	17	18	19	20	21	22	23	24
TRPML1 inh	-7	18	-2	-1	.	33	-21	.
uPA surface inh	5%	2.5µM*	-2%	-3%	.	0%	-8%	.
TRPML1 ag	0	0	?	106*	-1	0	110*	0
miR-21 FLuc	-21%	.	-3%	1%	.	-20%	-39%	.

# Entries of single compounds as entered above. Screens in order: TRPML1 inh, uPA surface inh, TRPML1 ag, miR-21 FLuc
# `C[C@]12CC[C@H]3[C@@H](CCC4=CC(=O)CC[C@@]43C)[C@@H]1CC[C@@H]2C(=O)CO` is entered as 24, 4µM*, -1, -18%
# `Cc1ccc(C(=O)CN2CCOCC2)cc1` is entered as ., ., -1, .
# `COc1ccccc1N=c1scc(-c2ccc(S(=O)(=O)N3CCCC3)cc2)n1C` is entered as 9, ., 0, ?
# `CN1Cc2cnnn2-c2ccccc2C1C#N` (stereo not given) is entered as -19, ?, 1, .

# Further entries:
[25] CN1CCc2c(C#N)c(Cl)nc(Cl)c2C1
[26] COc1ccc(OCC(=O)N2CCN(Cc3cccc(OC)c3OC)CC2)cc1
[27] CC(=O)c1sc(NC(=O)CCS(=O)(=O)c2ccc(C)cc2)nc1C
[28] CCOC(=O)c1ccsc1NC(=O)CCS(=O)(=O)c1ccccc1
[29] CCN(CC)C(=O)[C@H]1C[C@H](CC(=O)NCc2ccc(OC)c(OC)c2)C(=O)N2CCc3c([nH]c4ccc(Cl)cc34)[C@]12C
[30] COc1ccc2[nH]c3c(c2c1)CCN1C(=O)C(CC(=O)NCc2ccco2)C[C@H](C(=O)N(C(C)C)C(C)C)[C@@]31C (stereo not given in full)
[31] C=Cn1c(P(=S)(N2CCOCC2)N2CCOCC2)cc2c1CCCC2
[32] Nc1ncc(P(=S)(N2CCOCC2)N2CCOCC2)s1

assay / compound	25	26	27	28	29	30	31	32
TRPML1 inh	7	-12	6	7	23	-11	-4	1
uPA surface inh	11µM*	.	11µM*	?	10µM*	?	12%	3%
TRPML1 ag	0	-1	1	1	5	-1	68*	0
miR-21 FLuc	-7%	2%	.	19%	.	.	-9%	-2%

[33] COc1cc(CN2CCc3nc(N4CCN(c5ccccn5)CC4)ncc3C2)cc(OC)c1OC
[34] Nc1ccc2ccc3cccc[n+]3c2c1
[35] O=[N+]([O-])NC1=NCCN1Cc1ccc(Cl)nc1
[36] COc1cc2c(cc1O)[C@@H]1Cc3ccc(OC)c(O)c3CN1CC2
[37] Cc1oc(-c2ccc(Cl)cc2)nc1CN1CCC(C(=O)NCCCN2CCN(c3cccc(Cl)c3)CC2)CC1
[38] Cc1c2ccncc2c(C)c2c1[nH]c1ccccc12
[39] O=C(NCCSc1c(-c2ccccc2)[nH]c2ccccc12)c1ccc(S(=O)(=O)N2CCOCC2)cc1
[40] CCc1ccc(N2C(=O)NC(=O)/C(=C\C=C\c3ccco3)C2=O)cc1

assay / compound	33	34	35	36	37	38	39	40
TRPML1 inh	-1	-7	5	-12	6	5	18	-2
uPA surface inh	.	-2%	1.1µM*	4.5µM*	.	0.89µM*	.	8.9µM*
TRPML1 ag	0	87*	0	0	1	6	0	5
miR-21 FLuc	?	4%	2%	.	?	?	?	6%

[41] CC(C)Oc1ccc(CNC(=O)C2CCCN(S(=O)(=O)c3ccc4c(ccn4C)c3)C2)cc1 (stereo not given)
[42] C=C1[C@@H](O)[C@H](Cc2ccccc2)N(Cc2ccccc2Br)S1(=O)=O
[43] CC1(C)N([O])C(c2ccc(C(=O)O)cc2)=[N+]([O-])C1(C)C
[44] Cc1ccc(-c2cc(-c3ccc(C)cc3)[n+](-c3ccccc3)c(-c3ccc(C)cc3)c2)cc1
[45] Cc1ccc(-c2cc(-c3ccccc3)cc(-c3ccccc3)[n+]2-c2ccccc2)cc1
[46] O=C1c2ccccc2-c2cccc3cccc1c23
[47] Cc1n[nH]c(C)c1CCCCOc1ccccc1[N+](=O)[O-]
[48] O=C(Nc1nnc(-c2ccc3c(c2)CCCC3)o1)c1ccccc1

assay / compound	41	42	43	44	45	46	47	48
TRPML1 inh	6	-15	.	10	7	-5	-4	8
uPA surface inh	.	10µM*	.	?	10µM*	8.9µM*	?	10µM*
TRPML1 ag	1	1	-1	?	2	4	-1	15
miR-21 FLuc	?	.	.	.	.	.	9%	1%

[49] O=C(NCc1ccco1)c1cccc2c1C(=O)c1ccc(/C=C/c3ccccc3)cc1S2(=O)=O
[50] COc1ccc(-c2cn(Cc3ccc(C(=O)c4ccccc4)cc3)nn2)cc1
[51] CCN(CC)C(=O)c1ccc(NC(=O)Nc2ccccc2F)cc1
[52] C[n+]1c(-c2ccccc2)c2cc(N)ccc2c2ccc(N)cc21
[53] C=C1C(=O)O[C@@]23[C@H]1CC[C@@H](C)[C@@H]2CC[C@@]1(C)O[C@@H]31
[54] NCC(=O)c1cccc([N+](=O)[O-])c1
[55] Cc1ccc(Nc2nc(N)nc(CCl)n2)c(C)c1
[56] O=C(Nc1ccc(Br)cc1C(=O)c1ccccc1Cl)c1ccccc1F

assay / compound	49	50	51	52	53	54	55	56
TRPML1 inh	-2	31	18	10	-16	.	1	-24
uPA surface inh	?	?	4.5µM*	7.1µM*	?	.	4µM*	.
TRPML1 ag	-1	4	2	0	0	0	4	77*
miR-21 FLuc	.	-18%	14%	?	.	.	?	-1%

[57] O=C(Nc1ccc(Br)cc1C(=O)c1ccccc1)c1ccccc1
[58] Cn1cc(S(=O)(=O)N2CCc3ccccc32)cc1C(=O)NC(C)(C)C
[59] C=CCN1CC[C@]23c4c5ccc(O)c4OC2C(=O)CC[C@@]3(O)C1C5 (stereo not given in full)
[60] COc1ccc2c3c1OC1C(=O)CC[C@@]4(O)[C@@H](C2)N(C)CC[C@]314 (stereo not given in full)

assay / compound	57	58	59	60
TRPML1 inh	-19	12	48	9
uPA surface inh	.	?	10%	6.3µM*
TRPML1 ag	-1	0	1	-1
miR-21 FLuc	-9%	21%	-2%	.
